Yeast mating assay 2: variants of the scFv Ab-91

Data: MIT Lincoln Laboratory AlphaSeq set, Engelhart et al. 2022, doi:10.1038/s41597-022-01779-4, as distributed in FLAb.

Antigen: PDVDLGDISGINAS, a 14-residue peptide of the SARS-CoV-2 spike HR2 region.

Ab-91 is the parent antibody, in scFv form: VL, then the linker GGGGSGGGGSGGGGS, then VH. The light chain is unchanged in all variants.
VL: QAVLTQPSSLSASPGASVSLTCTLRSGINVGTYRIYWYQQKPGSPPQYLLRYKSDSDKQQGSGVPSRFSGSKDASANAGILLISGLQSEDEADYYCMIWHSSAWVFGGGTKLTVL
VH: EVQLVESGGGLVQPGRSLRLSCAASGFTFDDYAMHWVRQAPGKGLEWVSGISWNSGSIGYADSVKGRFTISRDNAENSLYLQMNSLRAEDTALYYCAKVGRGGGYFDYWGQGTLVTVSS

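The starting antibody came from a phage panning campaign against this peptide. The library (AAYL51) carries one to three amino acid substitutions per variant, with no insertions or deletions. Affinity was read by AlphaSeq, a pooled yeast mating assay with surface-displayed partners. Mating (16 h, 30 °C) was followed by selection of diploids and sequencing of their barcodes. Each replicate has its own calibration line, from reference interactions of the BCL2 family. The assay was run in three technical replicates.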

Positions count from residue 1 of the parent VH; N54R puts R in place of N. All variants listed here change N54 of the VH, counted from its first residue. Kd is apparent (estimated from mating counts) and averaged on the log scale over replicates with a signal. Smaller is tighter. "nd" means that the variant was in the library but no mating with the target was seen in any replicate; the authors take this as a sign of poor binding, and no number exists. Empty control strains, which show no peptide, gave a signal in 21% of pairings with library AAYL51; the median was 34 µM and 95% of these signals were weaker than 1.8 µM. No background was subtracted. For each scFv, signals with the empty controls are counted beside the result. In this assay the parent's reference entry averaged 72 nM; its copy inside this library read 7.5 nM.

- N54R+G59Q+G104P -> nd (0 of 3 replicates; controls 1 of 9)
- W53H+N54Q+S57Y -> 8.8 µM (1 of 3 replicates; controls 2 of 9)
- I51H+N54H+Y105T -> 78 µM (2 of 3 replicates; controls 4 of 9)
- M34N+N54C+A61L -> nd (0 of 3 replicates; controls 0 of 9)
- N54A+G59A+D107A -> 120 µM (2 of 3 replicates; controls 3 of 9)
- N54M+G56F+Y108M -> nd (0 of 3 replicates; controls 1 of 9)
- N54V+S55A+G104I -> nd (0 of 3 replicates; controls 3 of 9)
- N54H+I58V+V64R -> nd (0 of 3 replicates; controls 0 of 9)
- F27T+N54T+V64I -> 6.0 µM (1 of 3 replicates; controls 1 of 9)
- D30W+D31N+N54T -> nd (0 of 3 replicates; controls 1 of 9)
- I51R+N54L -> 51 µM (1 of 3 replicates; controls 3 of 9)
- N54E+S55A+G102Y -> 11 µM (2 of 3 replicates; controls 3 of 9)
- N54V+I58A+V99R -> 420 nM (1 of 3 replicates; controls 1 of 9)
- N54Q+V64D+G100P -> nd (0 of 3 replicates; controls 0 of 9)
- F27G+M34S+N54Q -> 230 nM (1 of 3 replicates; controls 2 of 9)
- N54W+V99K -> 66 µM (1 of 3 replicates; controls 0 of 9)
- Y32I+N54L+S63G -> nd (0 of 3 replicates; controls 1 of 9)
- F29N+N54L+D107C -> nd (0 of 3 replicates; controls 2 of 9)
- S52W+N54C+G102Q -> nd (0 of 3 replicates; controls 2 of 9)
- A33R+N54Q+V99H -> nd (0 of 3 replicates; controls 1 of 9)
- F29R+N54E+V99S -> 51 µM (2 of 3 replicates; controls 2 of 9)
- H35L+N54M+G104M -> 7.9 µM (2 of 3 replicates; controls 4 of 9)
- S52M+N54F+Y108S -> 630 µM (3 of 3 replicates; controls 9 of 9)
- W53G+N54M+D107M -> 600 nM (3 of 3 replicates; controls 0 of 9)
- W53F+N54K+S55C -> 49 µM (1 of 3 replicates; controls 0 of 9)
- T28C+W53L+N54G -> 17 µM (1 of 3 replicates; controls 0 of 9)
- N54R+G104D -> nd (0 of 3 replicates; controls 0 of 9)
- N54R+S55L+I58C -> nd (0 of 3 replicates; controls 2 of 9)
- G26H+N54L+Y60Q -> nd (0 of 3 replicates; controls 0 of 9)
- N54T+D62R -> nd (0 of 3 replicates; controls 3 of 9)
- S52H+N54A+R101Q -> nd (0 of 3 replicates; controls 0 of 9)
- N54G+S63Q -> 360 nM (3 of 3 replicates; controls 1 of 9)
- H35V+N54Y+G59R -> nd (0 of 3 replicates; controls 1 of 9)
- S52E+N54V -> 11 µM (1 of 3 replicates; controls 4 of 9)
- N54I+G56T+K65L -> 37 µM (3 of 3 replicates; controls 6 of 9)
- H35G+N54D+S57M -> 15 µM (1 of 3 replicates; controls 4 of 9)
- G50T+I51D+N54P -> 2.1 mM (1 of 3 replicates; controls 5 of 9)
- N54K+S55V+S63V -> 76 µM (3 of 3 replicates; controls 6 of 9)
- D30W+N54T+I58V -> 2.1 µM (3 of 3 replicates; controls 4 of 9)
- F27P+N54V+F106E -> nd (0 of 3 replicates; controls 0 of 9)
- F27Y+H35Q+N54M -> nd (0 of 3 replicates; controls 0 of 9)
- N54T -> nd (0 of 3 replicates; controls 2 of 9)
- H35S+N54T+V64I -> nd (0 of 3 replicates; controls 1 of 9)
- N54W+G56L+D62F -> 29 µM (1 of 3 replicates; controls 7 of 9)
- T28K+N54W+Y60W -> 92 µM (1 of 3 replicates; controls 0 of 9)
- Y32S+N54W+S57K -> 6.3 µM (1 of 3 replicates; controls 3 of 9)

Excerpt, the first 8 entries:

- N54R+G59Q+G104P = nd (0 of 3 replicates; controls 1 of 9)
- W53H+N54Q+S57Y = 8.8 µM (1 of 3 replicates; controls 2 of 9)
- I51H+N54H+Y105T = 78 µM (2 of 3 replicates; controls 4 of 9)
- M34N+N54C+A61L = nd (0 of 3 replicates; controls 0 of 9)
- N54A+G59A+D107A = 120 µM (2 of 3 replicates; controls 3 of 9)
- N54M+G56F+Y108M = nd (0 of 3 replicates; controls 1 of 9)
- N54V+S55A+G104I = nd (0 of 3 replicates; controls 3 of 9)
- N54H+I58V+V64R = nd (0 of 3 replicates; controls 0 of 9)